Measured values taken from article PMC11653366 (2024).
Ends that are not written are not given here. * marks the point of attachment. FITC = O=C1OC2(c3ccc(O)cc3Oc3cc(O)ccc32)c2ccc(NC(=S)*)cc21; Ahx = NCCCCCC(=O)O

Experiments:
F*-p40 = biological target: T1, F*-p40; assay: fluorescence anisotropy
T1 chain: {FITC-Ahx}-APTYSPPPPP

F*-PLLP = biological target: T2, F*-PLLP; assay: fluorescence anisotropy
T2 chain: {FITC-Ahx}-LASRPLPLLP

B1: Abl SH3 SH3 (protein)
chain: PSENDPNLFVALYDFVASGDNTLSITKGEKLRVLGYNHNGEWCEAQTKNGQGWVPSNYITPVNSLEK
- Kd (F*-p40): 3.1 µM
- Kd (F*-PLLP): > 1000 µM
